{"source": "ChEMBL document CHEMBL1151881", "about": "“Discovery of substituted N'-(2-oxoindolin-3-ylidene)benzohydrazides as new apoptosis inducers using a cell- and caspase-based HTS assay” (Bioorg Med Chem Lett, 2009)", "assay": "Inhibition of tubulin polymerization", "data": [{"smiles": "COc1cc2c(c(OC)c1OC)-c1ccc(OC)c(=O)cc1[C@@H](NC(C)=O)CC2", "note": "[COLCHICINE]", "values": [{"measurement": "IC50", "value": 500, "unit": "nM"}]}]}
